Results published in patent US8124598B2, “7-keto DHEA for psychiatric use” (priority 2006, dated 2012).

Key:
[1] = test system: healthy male volunteers; details: normal healthy men, doses up to 200 mg/d for 4 weeks; cited from earlier work
[2] = test system: patients with treatment-resistant PTSD, panic disorder, anxiety, depression and other conditions; assay: Eight case reports: 7-keto DHEA in treatment-resistant patients (Example 3); assay type: in vivo, human; details: Patient 8, chemobrain and CFS/Fibromyalgia after breast cancer treatment; 50 mg/day
From the text: 7-Keto DHEA for Healing Treatment-Resistant Posttraumatic Stress Disorder, Panic Disorder, Anxiety, Depression and Other Conditions in Male and Female Patients

## CC(=O)OC1CC[C@@]2(C)C(=CC(=O)[C@@H]3[C@@H]2CC[C@]2(C)C(=O)CC[C@@H]32)C1 (some centres unmarked) [7-keto DHEA, 3-acetyl-7-oxo-dehydroepiandrosterone]
[1]
  safety and tolerability: safe and well tolerated
[2]
  clinical response: significant improvement
